Laboratory results published in patent publication US11396496B2, “1,4-substituted isoquinoline inhibitors of KEAP1/NRF2 protein-protein interaction” (THE BOARD OF TRUSTEES OF THE UNIVERSITY OF ILLINOIS, priority 2018, dated 2022).

Experiments:
[1] = tested on: NADPH quinone oxidoreductase (NQO1); experiment: NRF2 target gene activation: NQO1 protein levels by Western Blot in HaCaT keratinocytes; format: cell-based, human; conditions: HaCaT cells, 10 μM compound, 6 h
Protocol: (§1) Molecules that block the degradatior of NRF2 serve as NRF2 activators. This has the effect of stabilizing NRF2 protein levels and upregulating target gene levels, such as NQO1. […] CDDO is a positive control compound that activates NRF2 through an electrophilic mechanism. […] HaCat Cells were treated with 10 μM compound unless otherwise indicated.
(§2) Spontaneously immortalized human keratinocytes (HaCaT cell line) were grown in Dubecco's modified Eagle's medium (DMEM) with 10% fetal bovine serum and 1% antibiotics. […] Cells were lysed in a 20 mM Tris (pH 7.5) buffer containing 150 mM NaCl, 1 mM EDTA, 1 mM EGTA, 1% Triton X-100, 2.5 mM sodium pyrophosphate, 1 mM Na3VO4, 5 mM β-glycerophosphate, and 1 μg/mL leupeptin. Equal amount of protein (˜40 μg) was separated on a 10% SDS-PAGE, blotted on the membrane, and probed with antiNRF2, or anti-NQO1 antibody. […] CDDO is a positive control compound that activates NRF2 through an electrophilic mechanism.

NRF2 = NRF2 stabilization by Western Blot in HaCaT keratinocytes; format: cell-based, human; conditions: HaCaT cells, 10 μM compound, 6 h, relative to vehicle (DMSO) control
Protocol: as §1, §2

## COc1ccc(S(=O)(=O)N(CC(F)(F)F)c2cnc(N(CC(=O)O)S(=O)(=O)c3ccc(OC)cc3)c3ccccc23)cc1 [Compound B0, N-(4-((4-methoxy-N-(2,2,2-trifluoroethyl)phenyl)sulfonamido)isoquinolin-1-yl)-N-((4-methoxyphenyl)sulfonyl)glycine]
[1]
  levels of NQO1: increase the levels of NQO1
NRF2
  stabilization of NRF2 expression: stabilize NRF2 expression
